Patent US9394307B2, “Fused heteroaryl pyridyl and phenyl benzenesuflonamides as CCR2 modulators for the treatment of inflammation” (ChemoCentryx, Inc., priority 2007, dated 2016)

Assay: Pharmacokinetics and oral bioavailability in the beagle dog
Details: male beagle dogs, i.v. 1 mg/kg and oral 5 mg/kg

Cc1cnc(C(=O)c2ncnc3[nH]ccc23)c(NS(=O)(=O)c2ccc(Cl)c(C(F)(F)F)c2)c1 [Compound 5, 4-Chloro-N-[5-methyl-2-(7H-pyrrolo[2,3-d]pyrimidine-4-carbonyl)-pyridin-3-yl]-3-trifluoromethyl-benzenesulfonamide]
tolerability (signs of ill health and mortality): well tolerated by the beagle dogs with no gross signs of ill health or mortality
